Earlier results in patent US10857245B2, “Diagnostic imaging agent for early bone metastasis from cancer” (NIHON MEDI-PHYSICS CO., LTD., priority 2015, dated 2020).

Test system: bone metastasis from breast cancer
Details: cited from earlier work
[1] = type of bone metastasis decided by CT

Substance: 2-[^18F]-2-deoxy-D-glucose
- combined sensitivity of all sites (89 patients with breast cancer): 80.0%
- detection rate of osteoblastic bone metastasis [1]: 55.6%
- detection rate of osteolytic bone metastasis [1]: 100%
